In PubChem BioAssay AID1346984 (Tox21, 2019):
This is a selection; strong and weak results do not stand in their true shares. Inconclusive results are not listed. Calls of active or inactive are those of the source. The call rests on the fitted dose curve; in most records, active means well fitted activation curve with a large enough effect in the repeat runs; inconclusive means weak or mixed curves; inactive means no such curve, though single readings can be large or run the other way.

biological target: Nuclear receptor subfamily 1 group I member 2 (Homo sapiens) (UniProt O75469); assay: CYP3A4 induction through human pregnane X receptor (PXR) by small molecules, qHTS assay; conditions: DPX-2 HepG2 PXR, CYP3A4-luciferin luminescence, 24 h; series mostly up to 46.1 µM; activation: at the top concentration; further: nearly all actives have a fitted effect of over 40% in size
Text: National Center for Advancing Translational Sciences [NCATS]
NIH Chemical Genomics Center [NCGC]
U.S. Environmental Protection Agency [EPA]
National Institutes of Environmental Health Sciences [NIEHS]
National Toxicology Program [NTP]
The Pregnane X receptor (PXR), a ligand activated nuclear receptor plays a critical role in the regulation of genes involved in drug metabolism and transporters. Activation of PXR is responsible for unwanted adverse drug reactions. PXR binds xenobiotics and when compounds interact with PXR enhances the expression of CYP3A genes. Identifying the compounds with the potential for PXR activation and CYP3A4 induction can be of importance in improving the efficacy of drugs with less toxicity and avoiding drug-drug interactions.
DPX-2 (Puracyp, Inc.) cell lines, used for screening against human PXR activation has HepG2 cells co-transfected with a PXR response element and a luciferase construct containing CYP3A4 promoter. […]
DPX-2 cells were dispensed at 2,000 cells per well in 5uL of assay medium into white, solid-bottom 1536-well plates using a Multidrop Combi dispenser (Thermo Scientific). […] Then 5ul One-Glo assay reagent (Promega) was added to each plate by an FRD and following 30 min incubation at room temperature, luciferase activity was quantified on a ViewLux plate reader (Perkin Elmer).
On the % scale 0 is the no-effect control and ±100 the full control effect; potency means the concentration at half of the fitted maximal effect.

Row | SMILES | activation | Potency
1 | CN(CCCl)CCCl | inactive: -4.2% | –
2 | CCC(=O)N(c1ccccc1)C1CCN(CCc2ccccc2)CC1 | – | active: 14.1 µM
